# AlphaSeq binding of Ab-14 light chain variants to a spike HR2 peptide

From the AlphaSeq antibody data of Li et al. 2023 (doi:10.1038/s41467-023-39022-2), copy in the FLAb collection.

The target is the same throughout: PDVDLGDISGINAS, from the HR2 region of SARS-CoV-2 spike.

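These sequences belong to a second round, designed from the earlier measurements on random variants of the parent. Several design methods are mixed in this list. The scFvs were displayed on barcoded MATa yeast, the peptide on MATalpha yeast. After mating in shaken culture at 30 °C for 16 h, diploids were selected and their barcode pairs sequenced. Scores were corrected for input abundance and mapped to Kd with protein pairs of known affinity run in the same pool. Each pool was mated in six replicate cultures.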

Ab-14 is the parent antibody, in scFv form: VH, then a 15-residue (Gly4Ser)3 linker, then VL. The heavy chain is unchanged in all variants.
VH: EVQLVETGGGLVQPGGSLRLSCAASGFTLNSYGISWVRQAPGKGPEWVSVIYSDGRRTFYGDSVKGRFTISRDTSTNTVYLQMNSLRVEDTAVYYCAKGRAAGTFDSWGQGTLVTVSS
VL: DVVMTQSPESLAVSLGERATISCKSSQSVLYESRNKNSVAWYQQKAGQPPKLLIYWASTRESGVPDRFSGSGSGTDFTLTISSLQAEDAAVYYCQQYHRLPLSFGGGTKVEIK

Variants are written as CDR1, CDR2 and CDR3 of the light chain (limits as in the source). Parent: KSSQSVLYESRNKNSVA, WASTRES, QQYHRLPLS.
Numbers give log10(Kd / nM), so 0 is 1 nM and 3 is 1 µM. Smaller is tighter.
Replicates are averaged; those with no signal do not enter the mean.
"not detected" means that the variant was in the library but no mating with the target was seen in any replicate; the authors take this as a sign of poor binding, and no number exists.
Nonspecific signal, from three strains lacking the peptide, appeared in 4% of pairings of all light chain designs, centred on 2.64 (5% of these signals below 1.59); values are not corrected for it. For each scFv, signals with the empty controls are counted beside the result.
Values of this round are not directly comparable with the first-round values of the same sequences.
The authors averaged sequences with at least three values out of six and counted those with two or fewer as poor binders.

CDR-L1	CDR-L2	CDR-L3	mean, log10 nM	detected	signal with controls
KLRQSTLYESRNQNSVA	NASTRES	QQYHRLPLS	0.17	6 of 6	0 of 18
KSSQSVLYESRNKNPVA	MASTRES	QQYHRLPLS	0.75	6 of 6	1 of 18
KLSQSELYESRNKNSVA	QASTRES	QQYHRLPLS	0.06	6 of 6	0 of 18
MVNGIMDHLSKNTNNVA	EQTTRNE	QQYDRLPLS	0.58	6 of 6	0 of 18
KFSQSYLYEDRAKNSVA	NASTRLW	QQYHRLPLS	0.18	6 of 6	2 of 18
HVEHDWLLSNATMKAVA	NGATLAD	QQYGRLPLS	0.62	6 of 6	2 of 18
KLSQSVLYESRNKNSVA	NASQRES	QQYHRLPLS	0.19	6 of 6	1 of 18
KVSQSVDYESRNKNAVA	NASTRES	QQYHRLPLS	-0.05	6 of 6	0 of 18
KSSQSYLYESENKNSVA	WASTRES	QQYHRLLLS	2.50	1 of 6	1 of 18
KVSQSWLYESRNKNAVA	NASQRES	QQYHRLPLS	-0.22	6 of 6	2 of 18
AFTNSIFYGQRDDNSIA	HADELEK	QQYFRFPLA	2.09	5 of 6	0 of 18
MLSQMWGVGSKAKNSVA	QANMRFN	QQYDRLPLI	0.86	6 of 6	2 of 18
HVTLQLRPGHETQNPIA	EASHRAA	QQYAHLPLG	0.50	6 of 6	0 of 18
KSSQGVMDESRNKNSVA	WGSTRES	QQYHRLPLS	1.14	6 of 6	0 of 18
KVSQSVLYESRNKNNVA	AASTRES	QQYHRLPLS	-0.26	6 of 6	0 of 18
KVDQDWDYESRNKNSVA	NASTRER	QQYHRLPLS	-0.12	6 of 6	3 of 18
KLSMSVLYESRNKNSVA	NASTRES	QQYHRLPLS	-0.33	6 of 6	0 of 18
KLSCSVDYWSRNTNSVA	GASTRES	QQYHRLPLS	0.63	6 of 6	0 of 18
TLTQSVLMESHNKNNVA	DLSTRGS	QQYHRLPLS	-0.13	6 of 6	0 of 18
MVTQMAMSGMTNKRSVA	NAETREY	QQYHRLPLI	0.70	6 of 6	0 of 18
KLQQSTLYESRMKNSVA	NASTRES	QQYHRLPLS	0.53	6 of 6	1 of 18
TLVDWIQGGDWAKKNVA	DEQTRMV	QQYYRLPLS	0.88	6 of 6	2 of 18
MVNGIMDHLSKQTNNVA	ETTTRES	QQYDRLPLS	0.73	6 of 6	0 of 18
TLYMGPTEARDDKHAIA	NMSERDY	QQYHRLPLV	0.43	6 of 6	2 of 18
MISQLINMGSFAINSVA	QAETRNE	QQYDRLPLE	1.37	6 of 6	1 of 18
KLSLSVLGESRNKNSVA	NASTRES	QQYHRLPLS	0.04	6 of 6	1 of 18
SMYPFEVAIGEGTNNVA	HVSVRAL	QQYERLPLV	2.03	6 of 6	0 of 18
TISQSALMTGLNRNSVA	QAEERIE	QQYHRLPLS	0.37	6 of 6	0 of 18
KLEQSNDYEDRNANNVA	NASQRES	QQYHRLPLS	0.19	6 of 6	0 of 18
TISQSFMMENQFKNSVA	QASTREQ	QCYDRLPLS	2.54	6 of 6	3 of 18
KSSTSVLWESRDKNSVA	EASTRES	SQYHRLPLS	not detected	0 of 6	0 of 18
KWSQSVLGEERNKMSVA	NGSTRES	QQYHRLPLS	0.55	6 of 6	2 of 18
KLDQSVLYESRNKNSVA	SASTRES	QQYHRLPLS	-0.30	6 of 6	0 of 18
HMSMLTLMGSRNRNSVA	QMTTREN	QQYDRLPLA	0.86	6 of 6	0 of 18
MLDQMDGQMGGNTNNIA	GVVEHRI	QQYHRLPLS	2.71	4 of 6	1 of 18
IFSQSVLMGNLIKNSVA	QASTRFS	QQYHRLPLI	2.20	2 of 6	0 of 18
HSSQSVPYESRNKNSVA	NASTREQ	QQYHRLPLS	0.20	6 of 6	1 of 18
KSSQSVLYESRNLNSVA	GASTRCS	QQYHRLPLS	1.26	6 of 6	1 of 18
TISQSVLMTGLNRNSVA	QAEQRIE	QQYHRLPLS	0.55	6 of 6	0 of 18
LSSISYYYESPNKNSVA	EASTRES	QQYHRLPLS	0.57	6 of 6	1 of 18
MVTQMAMSGMKNKRSVA	NAETREY	QQYHRLPLI	0.56	6 of 6	1 of 18
TLTQSVGMESHNKNSVA	DLSTRGS	QQYNRLPLS	0.69	6 of 6	1 of 18
RLDSVMGQLTNRAQNVA	NATTVIA	QSYMRLPLV	0.48	6 of 6	0 of 18
QVAAIHEHEKDQNQAMA	EASMRDA	QQYERLPLS	1.18	6 of 6	0 of 18
KLSQSGLYGMRNKMSVA	NASQRES	QQYHRLPLS	0.36	6 of 6	3 of 18
NIVGRVNQKGTTTANIA	DAELRAG	QQYSRLPLS	0.38	6 of 6	0 of 18
KLSQEMEYESRNPNSVA	QASERES	QQYHRLPLS	-0.89	6 of 6	1 of 18
GIHSQMFGTIAVKKNVA	NANTRLS	QQYSMLPLS	0.52	6 of 6	3 of 18
KLYDMSALTVTNIRNVA	DNTTREQ	QQYHRLPLS	1.58	5 of 6	1 of 18
KSSWSVLYESNNKNSVA	HASTREP	QQYHRLPLS	2.03	6 of 6	3 of 18
KSSQSVLYESVWKNSVA	WASTRES	QQYHRLPLS	2.19	6 of 6	1 of 18
KLSNSNLYESRNGNSVA	NASTRLH	QQYHRLPLS	0.52	6 of 6	0 of 18
KLRQSTLYESRNKNEVA	GASTRES	QQYHRLPLS	0.61	6 of 6	3 of 18
KLSQSVLYEQRNKNSVA	SASTRES	QQYHRLPLS	-0.11	6 of 6	2 of 18
QLESLEGEGYAYKENIA	EGEQRFS	QQYVRLPLH	0.71	6 of 6	0 of 18
KSLQSVLYESRNKNSVA	HASTRED	PQVHRLPLS	0.95	6 of 6	0 of 18
KLPQSTLYESRNKNSVA	GASTRES	QQYHRLPLS	0.05	6 of 6	2 of 18

The 9 strongest on average among those seen in every replicate, once more:

CDR-L1	CDR-L2	CDR-L3	mean, log10 nM	detected	signal with controls
KLSQEMEYESRNPNSVA	QASERES	QQYHRLPLS	-0.89	6 of 6	1 of 18
KLSMSVLYESRNKNSVA	NASTRES	QQYHRLPLS	-0.33	6 of 6	0 of 18
KLDQSVLYESRNKNSVA	SASTRES	QQYHRLPLS	-0.30	6 of 6	0 of 18
KVSQSVLYESRNKNNVA	AASTRES	QQYHRLPLS	-0.26	6 of 6	0 of 18
KVSQSWLYESRNKNAVA	NASQRES	QQYHRLPLS	-0.22	6 of 6	2 of 18
TLTQSVLMESHNKNNVA	DLSTRGS	QQYHRLPLS	-0.13	6 of 6	0 of 18
KVDQDWDYESRNKNSVA	NASTRER	QQYHRLPLS	-0.12	6 of 6	3 of 18
KLSQSVLYEQRNKNSVA	SASTRES	QQYHRLPLS	-0.11	6 of 6	2 of 18
KVSQSVDYESRNKNAVA	NASTRES	QQYHRLPLS	-0.05	6 of 6	0 of 18